Assays:
3T3-L1 adipocytes = conditions: for EC50: read-out: EC50 on mouse 3T3-L1 adipocyte, cAMP, at least 3 independent tests; for Rel. A (Relative Activity) on 3T3-L1 adipocyte: relative to GIP
In short: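 Mouse 3T3-L1 preadipocytes were differentiated with IBMX, dexamethasone and insulin for 5 days, then insulin plus 10 uM rosiglitazone for 3 days, then 10% FBS medium for 2–3 days. Mature adipocytes received 10-point, 3-fold compound dilutions for 60 min at room temperature. cAMP was read by kit detection reagent after a further 60 min, with concentration-effect curves fitted.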

The chains behind the UniProt entries cited, without tags or fusion partners. Residues count along the entry.
UniProt P47871, 26-477: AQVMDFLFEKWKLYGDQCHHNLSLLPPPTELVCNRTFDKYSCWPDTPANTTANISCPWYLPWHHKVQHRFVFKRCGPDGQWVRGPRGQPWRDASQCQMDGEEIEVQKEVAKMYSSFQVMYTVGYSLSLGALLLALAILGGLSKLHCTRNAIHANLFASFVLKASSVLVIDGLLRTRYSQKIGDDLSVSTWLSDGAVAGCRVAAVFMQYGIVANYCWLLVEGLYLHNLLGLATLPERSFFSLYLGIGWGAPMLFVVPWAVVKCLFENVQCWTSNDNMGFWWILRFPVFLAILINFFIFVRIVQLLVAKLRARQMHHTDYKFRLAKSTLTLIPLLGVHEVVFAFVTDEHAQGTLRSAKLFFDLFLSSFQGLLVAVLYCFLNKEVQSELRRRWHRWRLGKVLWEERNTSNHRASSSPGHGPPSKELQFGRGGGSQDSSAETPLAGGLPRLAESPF
UniProt P43220, 24-463: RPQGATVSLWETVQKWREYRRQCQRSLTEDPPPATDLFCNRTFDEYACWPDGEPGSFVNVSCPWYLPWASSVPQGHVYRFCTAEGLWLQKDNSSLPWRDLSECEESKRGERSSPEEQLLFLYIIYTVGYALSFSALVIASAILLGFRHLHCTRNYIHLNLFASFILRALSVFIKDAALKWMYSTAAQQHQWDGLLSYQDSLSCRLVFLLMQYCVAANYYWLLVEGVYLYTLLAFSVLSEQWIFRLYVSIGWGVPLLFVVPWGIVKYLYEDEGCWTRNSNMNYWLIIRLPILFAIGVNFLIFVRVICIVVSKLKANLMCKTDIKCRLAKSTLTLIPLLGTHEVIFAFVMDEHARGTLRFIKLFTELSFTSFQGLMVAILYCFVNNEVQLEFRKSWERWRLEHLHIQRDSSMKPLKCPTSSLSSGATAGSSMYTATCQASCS

Human GCG R = molecular target: T1, Human GCG R (Homo sapiens, UniProt P47871); assay: cAMP (HTRF) activity in HEK-293 cells stably overexpressing human GCG receptor; type: cell-based; conditions: for Human GCG R Rel. A (Relative Activity): EC50 of human GCG / EC50 of compound
T1 construct: expressed in transfected cells; host or cells: HEK-293
In short: (§1)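 Agonism was assessed from intracellular cAMP by HTRF. Cells resuspended in HBSS were treated with compound for 60 minutes at room temperature, then with detection reagent for a further 60 minutes. EC50 (nM) values came from concentration–response curves.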

Human GIP R = molecular target: T2, Human GIP R (Homo sapiens, UniProt P48546); assay: cAMP (HTRF) activity in CHO cells stably overexpressing GIP receptor; type: cell-based; conditions: for Human GIP R Rel. A (Relative Activity): EC50 of human GIP / EC50 of compound
T2 construct: expressed in transfected cells; host or cells: CHO
T2 sequence (P48546 22-466): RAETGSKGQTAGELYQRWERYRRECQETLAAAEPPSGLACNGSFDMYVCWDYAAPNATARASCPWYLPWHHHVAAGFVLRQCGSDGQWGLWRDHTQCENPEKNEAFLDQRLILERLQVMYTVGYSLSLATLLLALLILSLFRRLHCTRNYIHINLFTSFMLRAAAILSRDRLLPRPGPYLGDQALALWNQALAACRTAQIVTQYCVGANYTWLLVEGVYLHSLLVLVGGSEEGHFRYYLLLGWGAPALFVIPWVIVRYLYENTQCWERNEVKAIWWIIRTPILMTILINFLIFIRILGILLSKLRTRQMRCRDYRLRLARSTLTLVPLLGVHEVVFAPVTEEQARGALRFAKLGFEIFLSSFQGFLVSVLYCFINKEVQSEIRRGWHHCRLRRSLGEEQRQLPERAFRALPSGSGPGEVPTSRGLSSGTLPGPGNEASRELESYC
In short: as §1

RIN-m5F cells = type: cell-based, rat; conditions: for EC50: cAMP, at least 3 independent tests, read-out: EC50 on RIN-m5F rat pancreatic islet tumor cells; for Rel. A (Relative Activity) on RIN-m5F: relative to GLP-1(7-37)
In short: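 cAMP production measured in RIN-m5F cells resuspended in HBSS; compounds incubated 60 min at room temperature, then detection reagent added for a further 60 min before read-out.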

[1] = tested on: human primary liver cells; type: cell-based; conditions: for EC50: cAMP, at least 3 independent tests, read-out: EC50 on human primary liver cells; for Rel. A (Relative Activity) on human primary liver cells: relative to GCG
In short: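 Human primary hepatocytes, thawed at 37° C and resuspended in HBSS, exposed to compound for 60 min at room temperature. Detection reagent then added for 60 min before cAMP readout.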

Human GLP-1R = Human GLP-1R (Homo sapiens, UniProt P43220); assay: cAMP (HTRF) activity in HEK-293 cells stably overexpressing human GLP-1 receptor; type: cell-based; set-up: expressed in transfected cells; host or cells: HEK-293; conditions: for Human GLP-1R Rel. A (Relative Activity): EC50 of human GLP-1 (7-37) / EC50 of compound
In short: as §1

SMILES | EC50 (3T3-L1 adipocytes) | Rel. A (Relative Activity) on 3T3-L1 adipocyte (3T3-L1 adipocytes) | Human GCG R Rel. A (Relative Activity) (Human GCG R) | Human GIP R Rel. A (Relative Activity) (Human GIP R) | EC50 (RIN-m5F cells) | Rel. A (Relative Activity) on RIN-m5F (RIN-m5F cells) | EC50 [1] | Rel. A (Relative Activity) on human primary liver cells [1] | EC50 (Human GLP-1R) | Human GLP-1R Rel. A (Relative Activity) (Human GLP-1R) | EC50 (Human GCG R) | EC50 (Human GIP R)
CC[C@H](C)[C@H](NC(=O)[C@H](Cc1ccccc1)NC(=O)[C@H](C)NC(=O)C(C)(C)NC(=O)[C@H](CCC(N)=O)NC(=O)[C@H](C)NC(=O)[C@H](CCCCNC(=O)COCCOCCNC(=O)COCCOCCNC(=O)CC[C@H](NC(=O)CCCCCCCCCCCCCCCCCCC(=O)O)C(=O)O)NC(=O)[C@H](CCCCN)NC(=O)[C@H](CC(=O)O)NC(=O)[C@H](CC(C)C)NC(=O)[C@H](Cc1ccccc1)NC(=O)[C@@H](NC(=O)[C@H](CO)NC(=O)[C@H](Cc1ccc(O)cc1)NC(=O)[C@H](CC(=O)O)NC(=O)[C@H](CO)NC(=O)[C@@H](NC(=O)[C@](C)(Cc1ccccc1)NC(=O)[C@@H](NC(=O)CNC(=O)[C@H](CCC(N)=O)NC(=O)C(C)(C)NC(=O)[C@@H](N)Cc1ccc(O)cc1)[C@@H](C)O)[C@@H](C)O)[C@@H](C)CC)C(=O)N[C@@H](CCC(=O)O)C(=O)N[C@@H](Cc1ccc(O)cc1)C(=O)N[C@@H](CC(C)C)C(=O)N[C@@H](CC(C)C)C(=O)N[C@@H](CCC(=O)O)C(=O)N[C@H](C(=O)NCC(=O)N1CCC[C@H]1C(=O)N[C@@H](CO)C(=O)N[C@@H](CO)C(=O)NCC(=O)N[C@@H](C)C(=O)N1CCC[C@H]1C(=O)N1CCC[C@H]1C(=O)N1CCC[C@H]1C(=O)N[C@@H](CO)C(N)=O)[C@@H](C)O [Compound 13] | 10.9 nM | 34.84% | 109.62% | 565.63% | 0.164 nM | 629.27% | 4.5 nM | 86.45% | 0.012 nM | 366.67% | – | –
CC[C@H](C)[C@H](NC(=O)[C@H](Cc1ccccc1)NC(=O)[C@H](C)NC(=O)C(C)(C)NC(=O)[C@H](CCC(N)=O)NC(=O)[C@H](C)NC(=O)[C@H](CCCCNC(=O)COCCOCCNC(=O)COCCOCCNC(=O)CC[C@H](NC(=O)CCCCCCCCCCCCCCCCCCC(=O)O)C(=O)O)NC(=O)[C@H](CCCCN)NC(=O)[C@H](CC(=O)O)NC(=O)[C@H](CC(C)C)NC(=O)[C@](C)(CC(C)C)NC(=O)[C@@H](NC(=O)[C@H](CO)NC(=O)[C@H](Cc1ccc(O)cc1)NC(=O)[C@H](CC(=O)O)NC(=O)[C@H](CO)NC(=O)[C@@H](NC(=O)[C@](C)(Cc1ccccc1F)NC(=O)[C@@H](NC(=O)CNC(=O)[C@H](CCC(N)=O)NC(=O)C(C)(C)NC(=O)[C@@H](N)Cc1ccc(O)cc1)[C@@H](C)O)[C@@H](C)O)[C@@H](C)CC)C(=O)N[C@@H](CCC(=O)O)C(=O)N[C@@H](Cc1ccc(O)cc1)C(=O)N[C@@H](CC(C)C)C(=O)N[C@@H](CC(C)C)C(=O)N[C@@H](CCC(=O)O)C(=O)N[C@H](C(=O)NCC(=O)N1CCC[C@H]1C(=O)N[C@@H](CO)C(=O)N[C@@H](CO)C(=O)NCC(=O)N[C@@H](CCC(N)=O)C(=O)N1CCC[C@H]1C(=O)N1CCC[C@H]1C(=O)N1CCC[C@H]1C(=O)N[C@@H](CO)C(N)=O)[C@@H](C)O [Compound 23] | 2.45 nM | 155.12% | 228.00% | 2585.71% | 0.134 nM | 770.15% | 1.24 nM | 314.30% | 0.005 nM | 880.00% | 0.025 nM | 0.007 nM
CC[C@H](C)[C@H](NC(=O)[C@H](Cc1ccccc1)NC(=O)[C@H](C)NC(=O)C(C)(C)NC(=O)[C@H](CCC(N)=O)NC(=O)[C@H](C)NC(=O)[C@H](CCCCNC(=O)COCCOCCNC(=O)COCCOCCNC(=O)CC[C@H](NC(=O)CCCCCCCCCCCCCCCCCCC(=O)O)C(=O)O)NC(=O)[C@H](CCCCN)NC(=O)[C@H](CC(=O)O)NC(=O)[C@H](CC(C)C)NC(=O)[C@](C)(CC(C)C)NC(=O)[C@@H](NC(=O)[C@H](CO)NC(=O)[C@H](Cc1ccc(O)cc1)NC(=O)[C@H](CC(=O)O)NC(=O)[C@H](CO)NC(=O)[C@@H](NC(=O)[C@](C)(Cc1ccccc1)NC(=O)[C@@H](NC(=O)CNC(=O)[C@H](CCC(N)=O)NC(=O)C(C)(C)NC(=O)[C@@H](N)Cc1ccc(O)cc1)[C@@H](C)O)[C@@H](C)O)[C@@H](C)CC)C(=O)N[C@@H](CCC(=O)O)C(=O)N[C@@H](Cc1ccccc1)C(=O)N[C@@H](CC(C)C)C(=O)N[C@@H](CC(C)C)C(=O)N[C@@H](CCC(=O)O)C(=O)N[C@@H](CO)C(=O)N[C@@H](Cc1c[nH]cn1)C(=O)N1CCC[C@H]1C(=O)N[C@@H](CO)C(=O)N[C@@H](CO)C(=O)NCC(=O)N[C@@H](C)C(=O)N1CCC[C@H]1C(=O)N1CCC[C@H]1C(=O)N1CCC[C@H]1C(=O)N[C@@H](CO)C(N)=O [Compound 26] | 1.81 nM | 210.29% | 43.85% | 2585.71% | 0.401 nM | 257.36% | 2.62 nM | 148.45% | 0.022 nM | 200.00% | – | 0.007 nM
CC[C@H](C)[C@H](NC(=O)[C@H](Cc1ccccc1)NC(=O)[C@H](C)NC(=O)C(C)(C)NC(=O)[C@H](CCC(N)=O)NC(=O)[C@H](C)NC(=O)[C@H](CCCCNC(=O)COCCOCCNC(=O)COCCOCCNC(=O)CC[C@H](NC(=O)CCCCCCCCCCCCCCCCCCC(=O)O)C(=O)O)NC(=O)[C@H](CCCCN)NC(=O)[C@H](CC(=O)O)NC(=O)[C@H](CC(C)C)NC(=O)[C@](C)(Cc1ccccc1)NC(=O)[C@@H](NC(=O)[C@H](CO)NC(=O)[C@H](Cc1ccc(O)cc1)NC(=O)[C@H](CC(=O)O)NC(=O)[C@H](CO)NC(=O)[C@@H](NC(=O)[C@](C)(Cc1ccccc1)NC(=O)[C@@H](NC(=O)CNC(=O)[C@H](CCC(N)=O)NC(=O)C(C)(C)NC(=O)[C@@H](N)Cc1ccc(O)cc1)[C@@H](C)O)[C@@H](C)O)[C@@H](C)CC)C(=O)N[C@@H](CCC(=O)O)C(=O)N[C@@H](Cc1ccc(O)cc1)C(=O)N[C@@H](CC(C)C)C(=O)N[C@@H](CC(C)C)C(=O)N[C@@H](CCC(=O)O)C(=O)N[C@@H](CO)C(=O)N[C@@H](Cc1c[nH]cn1)C(=O)N1CCC[C@H]1C(=O)N[C@@H](CO)C(=O)N[C@@H](CO)C(=O)NCC(=O)N[C@@H](C)C(=O)N1CCC[C@H]1C(=O)N1CCC[C@H]1C(=O)N1CCC[C@H]1C(=O)N[C@@H](CO)C(N)=O [Compound 27] | 6.52 nM | 58.28% | 96.61% | 786.96% | 0.252 nM | 409.52% | 9.72 nM | 40.03% | 0.016 nM | 275.00% | – | 0.023 nM

Source: patent US20250129135A1, “Multi-Agonist and Use Thereof” (priority 2021, published 2025)
